One compound from patent US20240374724A1, “ENPP1 INHIBITORS AND IMMUNE CELLS EXPRESSING CHIMERIC ANTIGEN RECEPTORS” (Angarus Therapeutics, Inc., priority 2021, published 2024) can be followed below.

This assay concerns 4T1-luciferase tumor. Description: 4T1-luciferase tumor model: IR with compound 1, cGAMP and/or anti-CTLA-4; tumor volume and survival. Conditions: 20 Gy IR + compound 1 in addition to cGAMP, intratumoral. The format is in vivo, Balb/c mice.

With `COc1cc2ncnc(N3CCC(CCP(=O)(O)O)CC3)c2cc1OC` [compound 1], the cure rate was determined as 10%.
